Screens deposited in PubChem by Broad Institute.
esBAF inh – inhibitors of esBAF chromatin remodeling in mouse ES cells | Bmi1-luciferase knock-in reporter, 24 h; 100% = twice the neutral-well signal | 350,000 tested, 2% active | reporter increase, % at 12.5 µM | AID 602393; in the data active = activation above about 40%;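 also: 0% = median of the plate's neutral control wells and 100% = double that signal; a rise in the Bmi1 reporter signal indicates esBAF inhibition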
Wnt act – activates Wnt/beta-catenin signaling in a reporter cell assay; activation, % at 9.35 µM; 300,000 tested, 1.2% active; activator, plate reader; in the data active = activation above about 30%, passing the limit was not always enough;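 also: 0% = neutral control wells and 100% = positive control wells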
PglD inh – PglD (C. jejuni) enzyme inhibition | 360,000 tested, 0.098% active | purified PglD enzyme, DTNB colorimetric CoA detection | inhibition, % at 12.5 µM; in the data active = inhibition above about 16%, passing the limit was not always enough
UUG fidelity – alters start codon recognition fidelity in yeast. S. cerevisiae UUG-firefly luciferase reporter, luminescence/redox ratio. 350,000 tested, 0.13% active. activity score, % at 18.7 µM. AID 602363;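 active means replicate mean at a twofold rise or more, about +100% in these data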;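 further: firefly luciferase made from a UUG start codon reports start codon fidelity; reporter light over untreated wells divided by growth signal over untreated wells; some hits fall short of that in this replicate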
MITF TRPM1 HTS – activators of MITF-driven TRPM1 promoter activity in SK-MEL-5 cells | SK-MEL-5 TRPM1-promoter luciferase, 24 h; % of positive control, neutral wells = 0 | activation, % at 12.5 µM | 300,000 tested, 0.75% active;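 active = mean activation of at least 80% with every replicate also reaching 80%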;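 also: 0% = neutral control wells and 100% = parthenolide positive control wells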
miR-122 sensor – miR-122 inhibition in Huh7 cells; activation (reporter increase), % at 12.5 µM; AID 602342; 340,000 tested, 0.3% active; Huh7 miR-122 Renilla luciferase sensor, 48 h; neutral wells = 0, positive control = 100;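 active = mean replicate activation score at least 90 and every replicate individually at or above 90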;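 also: higher luciferase means less miR-122 activity so hits act as miR-122 inhibitors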
Active calls of the source: *; · = not tested or not shown; [ ] = remark or other dose. Compounds with a hit are over-represented: about 2.8% of the library has one in this group of screens.

Each structure is followed by: esBAF inh, Wnt act, PglD inh, UUG fidelity, MITF TRPM1 HTS, miR-122 sensor
1: COc1ccc(O)c(C(=O)CC(=O)c2ccc(F)cc2)c1
 : ·, ·, 0.6, -20.5, -19.1, -5.3
2: COc1ccc(O)c(C(=O)CC(=O)c2cccnc2)c1
 : 19.6, 34.1*, 2.5, 1.4, 62.3, ·
3: COc1ccc(O)c(C(=O)c2cnn(-c3ccccc3)c2)c1
 : 52.6*, -2.0, -1.0, -12.2, 32.4, 1.8
4: O=C(c1cnn(-c2ccccc2)c1)c1cc(F)ccc1O
 : 89.3*, 13.8, 2.4, -9.8, 66.0, 22.3
5: O=C(COc1ccccc1C(=O)c1cnn(-c2ccccc2)c1)Nc1ccc2ccccc2c1
 : 82.3*, 7.4, -5.3, -24.0, 113.6*, -1.4
6: O=C(C[C@@H]1C[C@H]2c3cc(NC(=O)CC4CC4)ccc3O[C@H]2[C@H](CO)O1)NCc1ccccn1
 : -1.0, ·, 1.8, -26.7, ·, 6.6[16.7 µM]
7: Cc1sc2ncnc(SCC(=O)c3cccs3)c2c1C
 : 60.4*, 38.1*, 2.6, -13.2, 33.9, 38.7
8: CCC(NC(=O)c1cncc(Br)c1)c1ccccc1 (stereo not drawn)
 : -6.3, 30.8*, 4.0, -2.6, -3.4, -1.5
9: O=C(NCc1ccccc1)c1cncc(Br)c1
 : ·, 2.5, 3.4, -12.0, 5.5, -25.0
10: O=C(NCCSc1ccccc1)c1ccc(Br)cc1
 : ·, -4.1, ·, ·, 29.3, ·
11: O=C(NCCSc1ccccc1)c1cncc(Br)c1
 : 76.1*, ·, ·, ·, 35.5, 2.9
12: CN1[C@@H]2c3ccc(-c4cccnc4)c(=O)n3C[C@@H]2[C@@H](CO)[C@@H]1C(=O)NCC1CCCCC1
 : -2.9, ·, -1.9, ·, ·, ·
13: O=C(C1CC1)N1C[C@H]2[C@@H](c3ccccc31)[C@H](CO)N2C(=O)Cc1ccccn1
 : 2.0, ·, -3.0, 1.2, ·, 0.0[16.7 µM]
14: Clc1ccc(-c2nnc(-c3ccco3)o2)cc1
 : 59.6*, 38.5*, -2.6, -14.8, 58.9, -8.2
15: CN(C)S(=O)(=O)c1cccc(-c2cn3ccccc3n2)c1
 : 20.0, 4.8, -6.7, -10.3, 20.7, -6.6

As entered above:
Value for entry 3 under esBAF inh: 52.6*
Value for entry 13 under UUG fidelity: 1.2
Value for entry 15 under esBAF inh: 20.0
Value for entry 10 under Wnt act: -4.1
Value for entry 14 under miR-122 sensor: -8.2
Value for entry 1 under miR-122 sensor: -5.3

New compounds follow.
Each structure is followed by: esBAF inh, Wnt act, PglD inh, UUG fidelity, MITF TRPM1 HTS, miR-122 sensor
16: CN(C)S(=O)(=O)c1cccc(-c2cn3cc(Cl)ccc3n2)c1
 : 45.1*, ·, 5.6, -5.6, 47.8, -4.3
17: CCOC(=O)C1=C(C)NC2=C(C(=O)CC(c3cccs3)C2)C1c1cccs1 (stereo not drawn)
 : 6.7, ·, 5.9, -7.3, -57.9, 94.6*
18: CCC(=O)N(C)C[C@@H]1Oc2cc(-c3ccccc3OC)ccc2S(=O)(=O)N([C@H](C)CO)C[C@@H]1C
 : -0.1, ·, -0.5, -3.1, ·, 2.8[16.7 µM]
19: CC(C)C(OC(=O)c1ccccc1)c1nccc2ccccc12 (stereo not drawn)
 : 71.7*, 0.2, 5.3, 0.6, 57.7, -6.7
20: Cc1ccc(S(=O)(=O)N(C)C[C@@H]2OCCCC[C@@H](C)Oc3ccc(NC(=O)CCC(F)(F)F)cc3C(=O)N([C@@H](C)CO)C[C@H]2C)cc1
 : 3.9, ·, 1.0, 11.0, ·, -10.5[16.7 µM]
21: CCC1=[N+](CC(=O)c2ccc(C)cc2)CCn2c(C)ccc21
 : ·, 12.0, ·, ·, 2.8, ·
22: CCC1=[N+](CC(=O)c2ccc(C)cc2)CCn2cccc21
 : 43.4*, 6.5, -1.2, -10.9, 56.3, -7.8
23: COc1cccc(NC(=O)N[C@H]2CC[C@@H](CC(=O)NCc3ccncn3)O[C@H]2CO)c1
 : -1.6, ·, 0.2, -6.1, ·, 20.9[16.7 µM]
24: CCn1c(=O)c(C(=O)Nc2ccccc2C)c(O)c2ccccc21
 : 44.4*, ·, -3.9, -12.6, -3.6, 0.5
25: CCCn1c(=O)c(C(=O)Nc2ccccc2C)c(O)c2ccccc21
 : 19.4, -2.1, -6.6, -14.5, -13.4, -1.1
26: CCCn1c(=O)c(C(=O)Nc2ccccc2N)c(O)c2ccccc21
 : 43.0*, 1.2, 0.9, -6.8, ·, ·
27: C=CCn1c(=O)c(C(=O)Nc2ccccc2O)c(O)c2ccccc21
 : ·, ·, 5.0, 15.3, -3.6, 5.1
28: C=CCn1c(=O)c(C(=O)Nc2ccccc2C)c(O)c2ccccc21
 : 61.2*, 6.2, -2.5, 7.7, 43.8, 0.2
29: O=C(NCc1ccccc1)c1ccc(-c2cn[nH]c2)c2ccoc12
 : 57.2*, 9.5, -1.5, -17.1, ·, 40.8
30: COc1ccc(/C=C/c2ccncc2)cc1
 : 52.6*, 45.7*, 0.7, -23.2, 73.8, -1.1

(next part)
Each structure is followed by: esBAF inh, Wnt act, PglD inh, UUG fidelity, MITF TRPM1 HTS, miR-122 sensor
31: CN(C)c1ccc(/C=C/c2ccncc2)cc1
 : 30.2, 43.5*, -1.9, 13.3, 60.3, 2.8
32: C[C@H](CO)N1C[C@H](C)[C@H](CN(C)C(=O)Nc2ccc(F)cc2)Oc2ncc(C#CC3CC3)cc2C1=O
 : -27.3, ·, -0.7, 22.2, ·, -9.8[16.7 µM]
33: O=C(O)/C=C/C(=O)Nc1ccccc1C(=O)OCC(=O)c1ccc2c(c1)OCCO2
 : ·, 31.5*, ·, ·, 14.9, ·
34: CCOC(=O)c1ccccc1NC(=O)/C=C/C(=O)O
 : ·, -2.5, -3.6, -13.0, 1.3, -4.5
35: CCCCCCOC(=O)c1ccccc1NC(=O)/C=C/C(=O)O
 : 35.7, 34.1*, -3.5, -2.1, ·, -8.1
36: O=C(O)/C=C\C(=O)Nc1ccccc1C#Cc1ccccc1
 : 56.3*, ·, 0.8, -3.1, 25.4, ·
37: CCC(=O)Nc1ccccc1C(=O)OCC(=O)c1ccc2ccccc2c1
 : 18.7, 50.2*, -1.9, 0.8, 7.7, -6.6
38: CN1c2ccc(Br)cc2[C@@H]2[C@@H](CCN2C(=O)Cc2cccnc2)[C@@H]1CO
 : -12.9, ·, -3.2, 24.1, ·, 52.1[16.7 µM]
39: CCCNC(=O)N(C)C[C@H]1Oc2ncc(C3=CCCCC3)cc2C(=O)N([C@@H](C)CO)C[C@@H]1C
 : -3.9, ·, 2.3, 15.7, ·, -7.0[16.7 µM]
40: Brc1ccc2oc3c(N4CCOCC4)ncnc3c2c1
 : 47.7*, 7.4, -0.7, -15.8, 8.9, 6.9
41: COc1ccc(C2=[N+]([O-])C(C)(C)C(c3ccccc3)=N2)cc1
 : -2.3, -1.2, ·, ·, -2.2, -6.6
42: CC1(O)C(c2ccccc2)=Nc2ccccc21 (stereo not drawn)
 : 34.0, 61.4*, 3.9, -17.4, ·, -0.8
43: CN(Cc1ccco1)c1ncnc2ccc(-c3ccc4c(c3)OCO4)cc12
 : -3.4, -9.4, 0.4, -8.9, -24.9, ·
44: Cc1nc(CN(C)c2ncnc3ccc(-c4ccc5c(c4)OCO5)cc23)cs1
 : 43.2*, -2.6, -3.7, -21.6, ·, 0.4
45: COc1cccc(CNC(=O)C[C@@H]2CC[C@@H](NC(=O)C3CC3)[C@H](CO)O2)c1
 : 2.2, ·, -2.7, -12.4, ·, ·

(list continues)
Each structure is followed by: esBAF inh, Wnt act, PglD inh, UUG fidelity, MITF TRPM1 HTS, miR-122 sensor
46: Cc1ccsc1C(=O)NNC(=S)NCC(C)C
 : 8.6, 2.6, ·, ·, 2.6, 5.8
47: CCN(CC)CC(=O)Nc1ccc(C)cc1Br
 : 11.9, 2.8, 6.3, -7.3, 35.9, 1.5
48: Cc1cccc(NC(=S)NNC(=O)c2sccc2C)c1
 : 42.0*, ·, 4.8, -33.3, 20.6, -1.2
49: CCc1cc(C(=O)Nc2ccc(C)cc2Br)cs1
 : ·, 69.8*, ·, ·, ·, ·
50: CCc1cc(C(=O)NNC(=S)Nc2cccc(C)c2)cs1
 : 50.0*, 38.9*, 1.0, -28.2, ·, -1.7
51: Cc1cccc(NC(=S)NNC(=O)c2csc(C(C)C)c2)c1
 : 5.7, 50.3*, ·, -31.7, ·, -4.5
52: CCNC(=O)[C@H]1[C@H](CO)[C@H]2Cn3c(ccc(/C=C/c4ccccc4)c3=O)[C@H]2N1C(C)=O
 : -4.8, ·, -14.5, ·, ·, -0.7[16.7 µM]
53: COc1ccc(CN(C)C[C@H]2OCCCC[C@@H](C)Oc3ccc(NC(=O)Nc4ccc(OC)cc4)cc3C(=O)N([C@@H](C)CO)C[C@H]2C)cc1
 : -3.5, ·, -1.2, 34.9, ·, -5.5[16.7 µM]

4 of the compounds above, field by field:
35. CCCCCCOC(=O)c1ccccc1NC(=O)/C=C/C(=O)O
- esBAF inh: 35.7
- Wnt act: 34.1*
- PglD inh: -3.5
- UUG fidelity: -2.1
- MITF TRPM1 HTS: ·
- miR-122 sensor: -8.1
36. O=C(O)/C=C\C(=O)Nc1ccccc1C#Cc1ccccc1
- esBAF inh: 56.3*
- Wnt act: ·
- PglD inh: 0.8
- UUG fidelity: -3.1
- MITF TRPM1 HTS: 25.4
- miR-122 sensor: ·
37. CCC(=O)Nc1ccccc1C(=O)OCC(=O)c1ccc2ccccc2c1
- esBAF inh: 18.7
- Wnt act: 50.2*
- PglD inh: -1.9
- UUG fidelity: 0.8
- MITF TRPM1 HTS: 7.7
- miR-122 sensor: -6.6
38. CN1c2ccc(Br)cc2[C@@H]2[C@@H](CCN2C(=O)Cc2cccnc2)[C@@H]1CO
- esBAF inh: -12.9
- Wnt act: ·
- PglD inh: -3.2
- UUG fidelity: 24.1
- MITF TRPM1 HTS: ·
- miR-122 sensor: 52.1[16.7 µM]
